15 compounds from patent publication EP4834881A1, “QUINOLONE COMPOUNDS AND USE THEREOF” (dated 2026) can be followed below.

Sequences of proteins named here, by UniProt entry; tags and fusion partners are left off.
UniProt Q96LB1, whole entry: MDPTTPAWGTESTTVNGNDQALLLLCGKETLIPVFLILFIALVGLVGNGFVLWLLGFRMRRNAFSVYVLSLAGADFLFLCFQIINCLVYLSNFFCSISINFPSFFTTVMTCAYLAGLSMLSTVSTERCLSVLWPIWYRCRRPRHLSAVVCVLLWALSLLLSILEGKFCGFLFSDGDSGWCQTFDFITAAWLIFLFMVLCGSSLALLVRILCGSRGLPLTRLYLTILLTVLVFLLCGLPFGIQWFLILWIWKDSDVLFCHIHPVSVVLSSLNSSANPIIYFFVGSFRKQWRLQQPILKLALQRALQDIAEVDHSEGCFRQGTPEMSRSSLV

The IC50 is the concentration that gives 50% inhibition.

One experiment addresses human MRGPRX2 (Homo sapiens, UniProt Q96LB1). As to the kind of experiment: In vitro target binding assay: BRET between MRGPRX2-Nluc and Venus-β-arrestin1 in transfected HEK-293T cells, antagonist mode against agonist R-ZINC-3573 (EC80). The note with it: antagonism of agonist R-ZINC-3573 at EC80, net BRET. The source says: Bioluminescence Resonance Energy Transfer (BRET) is an important biophysical technique for monitoring molecular interactions, and has been widely used to study protein-protein interactions in living cells. This technique requires the relevant proteins to be linked to an energy donor (such as luciferase) and an acceptor (such as a fluorescent protein). When a relevant drug molecule interacts with the protein, the protein structure alters, causing a change in the distance between the energy donor and the energy acceptor. The luminescence energy induced by the chemical reaction is transferred to the corresponding acceptor, resulting in increased acceptor emission, and generating a BRET signal. In this work, a DNA-synthesized target human MRGPRX2 and a donor luciferase Nluc (NanoLuc®Promega) (Supplier: Beijing Tsingke, Lot No.: SZ0171228-1), as well as an acceptor fluorescent protein Venus and the relevant test protein, namely human β-arrestin1 (ARRB1) (Supplier: Guangzhou Dahong Biotechnology, Lot No. HY22694-4396), were utilized, and were inserted into the eukaryotic expression vector plasmid pcDNA3.1(+) (Supplier: Qiyun Bio, Lot No.: QY2310) as fusion genes via a Linker sequence (GGSG). The cell line selected for the experiment was human embryonic kidney cells HEK-293T. The human embryonic kidney cell line HEK-293T was routinely cultured in 10 cm cell culture dishes using complete culture medium consisting of high-glucose DMEM medium supplemented with 10% (V/V) fetal bovine serum. Cells were seeded at 2×10^6 cells/10 cm dish on the first day of culture, and passaged every 72 h with the same number of cells. One day prior to transfection, cells were resuspended, counted, and seeded at a density of 2×10^6 cells/6 cm dish or 4×10^6 cells/10 cm dish. Transfection was carried out 16-24 h after seeding. Plasmids constructed with the fusion protein gene were transfected into the expression cell line, and the transfected cells were cultured under appropriate conditions for a period of time to allow sufficient expression of the fusion proteins. Transfection was performed by encapsulating plasmid DNA with PEI reagent, and the encapsulation process should to be carried out in Opti-MEM medium. The ratio of plasmid, PEI (Supplier: Yeasen Biotechnology, Lot No.: WP5430010), and Opti-MEM (Supplier: Gibco, Lot No.: 2883564) was 1:4:14 (W: W: V). The encapsulated plasmid was added to an appropriate amount of complete culture medium, amd gently mixed, which was then used to replace the existing culture medium of the previously plated cells. Cells were harvested 24 h after transfection. Subsequently, cells were resuspended using HBSS (Source: Biosharp, Lot No.: 24179687) and counted with a cell counter. The cells were diluted to a density of (3~5) ×10^5 cells/mL, and then seeded into a flat-bottom white 96-well microplate at 100 µ L/well, resulting in (3~5) ×10^4 cells per well. In each well, 10 µ L of antagonist compounds diluted with HBSS a different concentrations were added firstly, then the agonist compound at a specific concentration (EC80) was added. After reacting for 2 min, the substrate Furimazine (Supplier: TargetMol, Lot No.: 362434) at a final concentration of 10 µM was added. After reacting for another 2 min, the 96-well plate was placed in a PHERAstar FSX microplate reader (Supplier: BMG Labtech) to simultaneously measure the readings at wavelengths of 440 nm and 530 nm. Based on the fluorescence readings at 440 nm and 530 nm, the Ratio and net BRET were calculated. Ratio = Em530 nm / Em440 nm, and net BRET = Ratio co-transfection - Ratio single-transfection. The calculated net BRET values were inputted into GraphPad Prism 9, and curve fitting via nonlinear regression (four-parameter equation) and IC50 calculation were performed.
On the technique in general: BRET reads energy transfer from a luciferase to a nearby fluorophore.

Experiment [1] concerns BALB/c mice. As to the kind of experiment: Allergic rhinitis model: IgE assay (ELISA) in peripheral blood, nasal lavage fluid and tracheal tissue. The note with it: mean ± spread; for Peripheral Blood IgE Concentration: serum. The method, then:
(§1) Experimental animals: BALB/c mice, from Guangdong Vital River Laboratory Animal Technology Co., Ltd.
(§2) Modeling was initiated on the day of grouping, which was designated as M1. Except for the normal group, mice in all modeling groups were intraperitoneally injected with a sensitization solution of (250 µg OVA (Ovalbumin) (Supplier: Shanghai Macklin, Lot No.: C16255388) mixed with 5 mg aluminum hydroxide/mL) per mouse, while the normal control group was given an equal volume of sterile PBS solution. The injection cycle was M1, M7, and M14. Starting from M21, challenge was carried out by nasal instillation once daily for 7 consecutive days. The challenge solution was a 50 mg/mL OVA solution, and a volume of 10 µL was instilled into each nostril per time. The normal control group was not subjected to nasal instillation.
(§3) Administration was initiated on the day of the challenge by nasal instillation, which was designated as D1, and was performed once daily for 7 consecutive days. The normal control group and the model control group were administered with vehicle alone under the same conditions:
Prior to necropsy, blood was collected from the eyeball. The collected mouse blood was then centrifuged at 1800 r/min at 4 °C for 15 min, and the supernatant serum was aliquoted and stored at -80 °C for testing. At the same time, nasal lavage fluid and tracheal tissues were collected. The IgE levels in the above three samples was detected using an ELISA method (Supplier: Shanghai Enzyme-linked Biotechnology Co., Ltd., Lot No.: ml1037602).
For orientation: An ELISA detects its analyte on a solid surface through an enzyme-linked reagent.

Experiment [2] relates to BALB/c mice. As to the kind of experiment: Allergic rhinitis model: OVA sensitization and nasal challenge, number of sneezes. The note with it: 5mg/kg p.o. once daily, within 10 min after the nasal challenge. The method, then:
as §1, §2, §3
The number of sneezes in each group was recorded within 10 min after the nasal challenge every day during the administration period.

Experiment [3] relates to BALB/c mice. As to the kind of experiment: Atopic dermatitis model: MC903 (calcipotriol) on right ear, ear thickness. The note with it: 50 mg/kg BID p.o., mean ± SEM. The method, then:
as §1
MC903 (calcipotriol) (Supplier: TargetMol, Lot No.: 235760) was applied to the right ear of mice, once a day, for 14 consecutive days.
The animals were randomly divided into 6 groups before induction on D1. The model control group was administered with vehicle alone under the same conditions. Administration was carried out according to the following groups:
During the experiment period, the thickness of the right ear of the mice was measured. […] The data are presented as mean ± standard error of the mean (SEM).

For a further experiment, the system named is C57BL/6 mice. As to the kind of experiment: Inflammatory bowel disease model: 3% DSS drinking water, DAI score. The note with it: mean ± SEM. The method, then:
Experimental animals: C57BL/6 mice, from Guangdong Vital River Laboratory Animal Technology Co., Ltd.
C57BL/6 mice were used. 3% DSS (Dextran Sulfate Sodium) (Supplier: MPBIO, Lot No.: YD11024) in water was prepared as drinking water for the mice.
During the experiment, the animals were weighed at a fixed time daily, and their status (including feces, mortality) was observed. The efficacy was evaluated by the DAI score. The details of the DAI scoring criteria are as follows: 0 point for normal stool, 1 point for soft but formed stool, 2 points for soft stool, 3 points for soft and wet stool, 4 points for loose stool; 0-1 point for no occult blood, 2 points for occult blood positive, 3 points for visible blood in stool, 4 points for severe fecal blood; 0 point for no weight loss or weight gain, 1 point for weight loss of 1%-5%, 2 points for weight loss of 6%-10%, 3 points for weight loss of 11%-15%, 4 points for weight loss > 15%. The sum of the scores for 3 items is the total DAI score, and the weighing and scoring were carried out every other day. […] The DAI scores are shown in Table 5, and the data are presented as mean + standard error of the mean (SEM): Table 5

Take `CCCCCCCNS(=O)(=O)c1ccc(-c2cc3c(cc2F)c(=O)c(C(=O)O)cn3C2CC2)cn1`: the IC50 on human MRGPRX2 lay within 0.1 to 1 µM.

Compound `COc1c(-c2ccc(SCCO)cc2)c(F)cc2c(=O)c(C(=O)O)cn(C3CC3)c12` displayed an IC50 on human MRGPRX2 of 10 to 80 µM.

Take `NCCCCCCNS(=O)(=O)c1ccc(-c2cc3c(cc2F)c(=O)c(C(=O)O)cn3C2CC2)cc1`: the IC50 at human MRGPRX2 was in the range of 10 to 80 µM.

On to `NC(=O)c1cc(-c2cc3c(cc2F)c(=O)c(C(=O)O)cn3C2CC2)ccn1`, for which the IC50 at human MRGPRX2 was 1 to 10 µM.

In the case of `CCCCCCCNS(=O)(=O)c1ccc(-c2c(F)cc3c(=O)c(C(=O)O)cn(C4CC4)c3c2OC)nc1`, in the experiment on BALB/c mice [1], the “Nasal Lavage Fluid IgE Concentration” value came out at 10.3 ± 1.5 ng/mL, the “Peripheral Blood IgE Concentration” value came to 9.6 ± 2.2 ng/mL and the “Tracheal Tissue IgE Concentration” value was 10.0 ± 5.3 ng/mL.

As for `COc1cc(-c2c(F)cc3c(=O)c(C(=O)O)cn(C4CC4)c3c2OC)ccc1NC(C)=O`, the IC50 at human MRGPRX2 lay in the range of 10 to 80 µM.

With `CCCNS(=O)(=O)c1ccc(-c2c(F)cc3c(=O)c(C(=O)O)cn(C4CC4)c3c2Cl)cn1`, on human MRGPRX2, the IC50 was in the range of 1 to 10 µM.

In the case of `COc1c(-c2ccc(S(=O)(=O)NC3CCCCC3)c(C#N)c2)c(F)cc2c(=O)c(C(=O)O)cn(C3CC3)c12`, on human MRGPRX2, the IC50 was in the range of 1 to 10 µM.

`NC(=O)c1cc(-c2nc3c(cc2F)c(=O)c(C(=O)O)cn3C2CC2)ccn1` showed an IC50 on human MRGPRX2 of 1 to 10 µM.

In the case of `COc1c(-c2ccc(S(=O)(=O)NCCCl)cc2)c(F)cc2c(=O)c(C(=O)O)cn(C3CC3)c12`, the IC50 on human MRGPRX2 is 10 to 80 µM.

Take `CCCCCCCNS(=O)(=O)c1ccc(-c2c(F)cc3c(=O)c(C(=O)O)cn(C4CC4)c3c2OC)cc1`: on human MRGPRX2, the IC50 fell in the range of 0.1 to 1 µM.

Turning to `CCCNC(=O)c1cc(-c2cc3c(cc2F)c(=O)c(C(=O)O)cn3C2CC2)ccn1`, the number of sneezes is 1.5 number of sneezes/mouse in the experiment on BALB/c mice [2] (D1); 3.7 number of sneezes/mouse in the experiment on BALB/c mice [2] (D2); 15.2 number of sneezes/mouse in the experiment on BALB/c mice [2] (D3); 12.5 number of sneezes/mouse in the experiment on BALB/c mice [2] (D4); 10.8 number of sneezes/mouse with BALB/c mice [2] (D5); 13.0 number of sneezes/mouse in the experiment with BALB/c mice [2] (D6). The number of sneezes with BALB/c mice [2] (D7) was 15.2 number of sneezes/mouse. Besides, the IC50 at human MRGPRX2 was in the range of 1 to 10 µM. The “Right Ear Thickness of Mice” value in the experiment with BALB/c mice [3] (D2) is reported as 0.19±0.04 mm; with BALB/c mice [3] (D4), 0.28 ± 0.02 mm; with BALB/c mice [3] (D6), 0.42 ± 0.04 mm; with BALB/c mice [3] (D8), 0.50 ± 0.04 mm; in the experiment with BALB/c mice [3] (D10), 0.52 ± 0.04 mm; in the experiment on BALB/c mice [3] (D12), 0.60 ± 0.04 mm. Moreover, in the experiment on BALB/c mice [3] (D14), the “Right Ear Thickness of Mice” value was 0.58 ± 0.02 mm.

As to `O=C(O)c1cn(C2CC2)c2cc(-c3ccc(S(=O)(=O)NCCCC(F)(F)F)cc3)c(F)cc2c1=O`, in the experiment with BALB/c mice [1], the “Nasal Lavage Fluid IgE Concentration” value turned out to be 10.2 ± 2.3 ng/mL, the “Peripheral Blood IgE Concentration” value worked out at 9.8 ± 1.9 ng/mL and the “Tracheal Tissue IgE Concentration” value is 10.3 ± 4.4 ng/mL.

Take `CCCCCNS(=O)(=O)c1ccc(-c2cc3c(cc2F)c(=O)c(C(=O)OC)cn3C2CC2)cn1`: in the experiment with BALB/c mice [1], the “Nasal Lavage Fluid IgE Concentration” value stood at 10.6 ± 1.8 ng/mL, the “Peripheral Blood IgE Concentration” value worked out at 9.7 ± 2.9 ng/mL and the “Tracheal Tissue IgE Concentration” value was 9.6 ± 4.2 ng/mL.

As for `COc1c(-c2ccc(S(=O)(=O)N3CCCCC3)cc2)c(F)cc2c(=O)c(C(=O)O)cn(C3CC3)c12`, in the experiment with BALB/c mice [1], the “Nasal Lavage Fluid IgE Concentration” value was found to be 9.6 ± 3.8 ng/mL. In addition, the “Peripheral Blood IgE Concentration” value with BALB/c mice [1] was found to be 9.6 ± 2.2 ng/mL. Moreover, the “Tracheal Tissue IgE Concentration” value with BALB/c mice [1] worked out at 10.9 ± 4.9 ng/mL. Also, the number of sneezes in the experiment on BALB/c mice [2] (D1) is listed as 2.5 number of sneezes/mouse; in the experiment on BALB/c mice [2] (D2), 3.3 number of sneezes/mouse; with BALB/c mice [2] (D3), 10.2 number of sneezes/mouse; with BALB/c mice [2] (D4), 14.5 number of sneezes/mouse; in the experiment with BALB/c mice [2] (D5) it was 11.3 number of sneezes/mouse; in the experiment with BALB/c mice [2] (D6), 15.8 number of sneezes/mouse. In addition, the number of sneezes in the experiment with BALB/c mice [2] (D7) is 13.2 number of sneezes/mouse. This compound also yielded an IC50 on human MRGPRX2 of 1 to 10 µM. In addition, the DAI score is reported as 0.00±0.00 in the experiment on C57BL/6 mice (D1, 20mg/kg QD p.o.); 0.9±1.0 in the experiment with C57BL/6 mice (D2, 20mg/kg QD p.o.); 2.0±1.2 in the experiment with C57BL/6 mice (D3, 20mg/kg QD p.o.); 2.8±1.8 with C57BL/6 mice (D4, 20mg/kg QD p.o.); 3.3±1.2 in the experiment on C57BL/6 mice (D5, 20mg/kg QD p.o.); 5.2±1.6 in the experiment with C57BL/6 mice (D6, 20mg/kg QD p.o.). The DAI score in the experiment with C57BL/6 mice (D7, 20mg/kg QD p.o.) was 6 ··.
